# Test results taken from patent US20140315797A1, “Novel N-Terminally Modified Insulin Derivatives” (priority 2010, published 2014).
# System: duodenum lumen enzymes
# Assay: Degradation of insulin analogs using duodenum lumen enzymes
# Conditions: degradation half time divided by that of reference insulin; rat duodenum enzymes, pH 7.4, 37° C.
substance,measurement,value
"A1(N,N-Dimethyl), A14E, B1(N,N-dimethyl), desB27, B29K(N^εoctadecanedioyl-gGlu-2xOEG), desB30 human insulin [Example 6]","Duodenum degradation. Relative stability vs. A14E, B25H, desB30 human insulin",3.8
